# Target: B-cell lymphoma 6 protein (Homo sapiens, UniProt P41182)
row,SMILES,IC50 [nM]
1,C[C@H](O)CCn1c(=O)n(C)c2ccc(Nc3ccnc(Cl)c3C#N)cc21,3900
2,C[C@@H](O)CCn1c(=O)n(C)c2ccc(Nc3ccnc(Cl)c3C#N)cc21,1700
3,Cn1c(=O)n(CCC(C)(C)O)c2cc(Nc3nc(Cl)ncc3Cl)ccc21,1900
4,Cn1c(=O)n(CCC(C)(C)O)c2cc(Nc3ncnc(Cl)c3C#N)ccc21,2500

# Source: ChEMBL document CHEMBL4342505, “Achieving In Vivo Target Depletion through the Discovery and Optimization of Benzimidazolone BCL6 Degraders” (J Med Chem, 2020)
